Where “and” joins values, the source holds several entries; their conditions need not be identical. Identical values can stand only once.
Legend:
[1] = biological target: Sodium-dependent serotonin transporter (Rattus norvegicus, UniProt P31652); experiment: Functional Uptake Assay (rSERT): Quantification of 5-HT uptake was performed using synaptosomes isolated in a 0.32M sucrose buffer from a male Wistar rat cortex. The uptake of radiolabelled 5-HT by synaptosomes (100 ug of proteins/point) was allowed by incubating them in a well for 15 min at 37° C. in presence of test compounds and [3H]5-hydroxytryptamine (serotonin; 0.1 uCi/point). […] This incubation buffer was oxygenated during 5 minutes before incubation. Basal control was incubated for 15 minutes at 4° C. in order to avoid any uptake. […] The radioactivity associated to the synaptosomes retained on the unifilter corresponding to the uptake was then measured with a microplate scintillation counter (Topcount, Packard) using a scintillation fluid.; type: subcellular
[2] = biological target: Sodium-dependent dopamine transporter (Rattus norvegicus, UniProt P23977); experiment: Functional Uptake Assay (rDAT): Quantification of dopamine uptake was performed using synaptosomes isolated in a 0.32 M sucrose buffer from a male Wistar rat striatum. The uptake of radiolabelled dopamine by synaptosomes (20 ug of proteins/point) was allowed by incubating them for 15 minutes at 37° C. in the presence of test compounds and [3H]-dopamine (0.1 uCi/point). The experiment was performed in a deep well. Synaptosomes and [3H]-dopamine were prepared in a Krebs buffer pH 7.4 containing 25 mM NaHCO3, 11 mM glucose and 50 uM ascorbic acid. This incubation buffer was oxygenated for 5 minutes before incubation. Basal control was incubated for 15 minutes at 4° C. in order to avoid any uptake. Following this incubation, the uptake was stopped by filtration through a unifilter 96-wells GFB Packard plate washed with Krebs buffer containing 25 mM NaHCO3 in order to eliminate free [3H]-dopamine. The radioactivity associated to the synaptosomes retained onto the unifilter corresponding to the uptake was then measured with a microplate scintillation counter (Topcount, Packard) using a scintillation fluid.; type: subcellular
[3] = biological target: Sodium-dependent serotonin transporter (Homo sapiens, UniProt P31645)
[4] = biological target: Sodium-dependent dopamine transporter (Homo sapiens, UniProt Q01959)

Chains of the proteins cited; added tags and fusions are not shown.
UniProt P31652, whole entry: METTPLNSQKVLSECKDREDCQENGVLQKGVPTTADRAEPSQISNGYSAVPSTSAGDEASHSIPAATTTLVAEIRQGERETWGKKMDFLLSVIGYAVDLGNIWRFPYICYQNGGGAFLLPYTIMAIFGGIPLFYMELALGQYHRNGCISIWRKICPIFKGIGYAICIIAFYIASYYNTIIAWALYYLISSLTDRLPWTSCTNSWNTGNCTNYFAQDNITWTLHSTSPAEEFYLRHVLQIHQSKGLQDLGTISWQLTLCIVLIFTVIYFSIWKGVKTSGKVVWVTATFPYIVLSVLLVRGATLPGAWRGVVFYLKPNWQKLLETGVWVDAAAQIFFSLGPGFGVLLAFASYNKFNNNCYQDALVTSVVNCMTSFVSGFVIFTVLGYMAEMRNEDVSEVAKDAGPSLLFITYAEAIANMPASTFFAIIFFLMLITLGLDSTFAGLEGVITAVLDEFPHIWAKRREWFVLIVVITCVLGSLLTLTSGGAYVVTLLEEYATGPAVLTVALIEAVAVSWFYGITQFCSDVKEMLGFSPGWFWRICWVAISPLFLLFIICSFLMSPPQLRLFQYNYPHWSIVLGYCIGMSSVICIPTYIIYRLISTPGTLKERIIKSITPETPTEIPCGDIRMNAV
UniProt P23977, whole entry: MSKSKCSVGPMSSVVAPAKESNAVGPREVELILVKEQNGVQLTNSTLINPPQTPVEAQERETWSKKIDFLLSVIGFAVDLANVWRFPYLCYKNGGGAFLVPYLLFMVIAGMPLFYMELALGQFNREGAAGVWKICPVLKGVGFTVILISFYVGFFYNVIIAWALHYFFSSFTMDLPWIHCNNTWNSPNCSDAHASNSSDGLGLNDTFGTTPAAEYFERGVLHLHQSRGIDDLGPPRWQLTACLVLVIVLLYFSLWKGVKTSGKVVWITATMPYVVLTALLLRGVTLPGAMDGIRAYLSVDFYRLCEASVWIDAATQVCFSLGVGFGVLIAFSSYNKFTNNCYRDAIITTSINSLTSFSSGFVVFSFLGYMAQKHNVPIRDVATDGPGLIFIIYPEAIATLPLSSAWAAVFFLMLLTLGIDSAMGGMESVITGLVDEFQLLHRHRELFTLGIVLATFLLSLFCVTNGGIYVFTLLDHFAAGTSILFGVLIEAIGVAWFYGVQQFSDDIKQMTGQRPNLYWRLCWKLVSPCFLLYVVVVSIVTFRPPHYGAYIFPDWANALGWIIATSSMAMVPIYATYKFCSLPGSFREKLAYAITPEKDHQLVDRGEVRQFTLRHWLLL
UniProt P31645, whole entry: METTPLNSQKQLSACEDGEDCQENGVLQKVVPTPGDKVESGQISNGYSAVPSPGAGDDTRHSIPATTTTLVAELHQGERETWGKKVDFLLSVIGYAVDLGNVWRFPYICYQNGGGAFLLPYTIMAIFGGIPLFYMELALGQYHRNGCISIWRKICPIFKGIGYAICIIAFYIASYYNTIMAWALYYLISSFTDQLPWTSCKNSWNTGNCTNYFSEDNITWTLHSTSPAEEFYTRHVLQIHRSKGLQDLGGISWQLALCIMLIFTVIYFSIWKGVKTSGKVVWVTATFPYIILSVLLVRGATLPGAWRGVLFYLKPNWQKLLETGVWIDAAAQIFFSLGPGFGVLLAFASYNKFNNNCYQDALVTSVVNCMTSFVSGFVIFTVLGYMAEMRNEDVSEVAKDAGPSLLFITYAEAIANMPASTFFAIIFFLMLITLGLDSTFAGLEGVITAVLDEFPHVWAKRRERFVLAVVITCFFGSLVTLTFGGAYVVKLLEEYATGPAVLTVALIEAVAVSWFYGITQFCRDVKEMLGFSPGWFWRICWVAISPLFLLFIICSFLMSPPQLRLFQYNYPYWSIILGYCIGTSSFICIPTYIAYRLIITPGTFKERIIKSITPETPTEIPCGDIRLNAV
UniProt Q01959, whole entry: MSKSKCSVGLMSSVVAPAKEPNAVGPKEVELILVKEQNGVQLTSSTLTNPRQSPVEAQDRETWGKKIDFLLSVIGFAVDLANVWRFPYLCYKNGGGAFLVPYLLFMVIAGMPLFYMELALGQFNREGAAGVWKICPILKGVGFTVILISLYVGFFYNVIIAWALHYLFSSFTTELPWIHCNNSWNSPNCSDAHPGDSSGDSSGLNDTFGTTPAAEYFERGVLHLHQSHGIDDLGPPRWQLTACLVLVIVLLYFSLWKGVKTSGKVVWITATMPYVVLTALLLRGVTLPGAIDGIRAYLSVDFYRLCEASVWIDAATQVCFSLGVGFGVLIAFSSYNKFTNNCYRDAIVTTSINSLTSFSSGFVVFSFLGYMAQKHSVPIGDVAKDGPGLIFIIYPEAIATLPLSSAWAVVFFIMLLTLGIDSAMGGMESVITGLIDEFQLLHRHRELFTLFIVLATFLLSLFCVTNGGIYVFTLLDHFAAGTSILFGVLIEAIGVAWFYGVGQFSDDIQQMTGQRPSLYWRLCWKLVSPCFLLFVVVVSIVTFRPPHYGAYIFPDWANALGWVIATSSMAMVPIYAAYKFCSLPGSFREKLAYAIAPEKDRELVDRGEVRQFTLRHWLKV

SMILES | IC50 [1] [nM] | IC50 [2] [nM] | IC50 [3] | IC50 [4] [nM]
CNCC1(c2ccc(Cl)c(Cl)c2)CCC(C)(O)CC1 (stereo not given) | 42 | 43 | – | –
CNCC1(c2ccc(Cl)c(Cl)c2)CCCC(OC)C1 (stereo not given) | – | – | 1440 nM and 2050 nM | –
CN(C)C[C@]1(c2ccc(Cl)c(Cl)c2)CCC[C@](C)(O)C1 (relative stereo) | – | – | 2190 nM | 462

— ChEMBL document CHEMBL5727566, “Cycloalkylamines as monoamine reuptake inhibitors” (2020)
